## Measured affinities in a library of Ab-14 heavy chain variants

Values reported by Li et al. 2023, doi:10.1038/s41467-023-39022-2 (FLAb copy).

Antigen: PDVDLGDISGINAS, a 14-residue peptide of the SARS-CoV-2 spike HR2 region.

Each scFv is VH, the linker GGGGSGGGGSGGGGS, VL, as in the parent Ab-14, and differs from it in the CDRs of the heavy chain only.
VH: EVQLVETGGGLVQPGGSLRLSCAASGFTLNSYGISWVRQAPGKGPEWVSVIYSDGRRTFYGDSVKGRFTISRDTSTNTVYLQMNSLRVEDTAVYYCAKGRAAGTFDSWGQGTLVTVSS
VL: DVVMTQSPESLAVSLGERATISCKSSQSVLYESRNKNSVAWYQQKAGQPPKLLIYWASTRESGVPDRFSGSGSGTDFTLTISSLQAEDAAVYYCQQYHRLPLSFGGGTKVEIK

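The parent was found by panning a naive human phage display library on the peptide. This is the validation round: designs drawn from the data on random variants, tested in the same kind of assay. Group labels follow the data file (En: ensemble of fine-tuned language models; HC: hill climbing; Gen: genetic algorithm; Gibbs: Gibbs sampling; a sequence that several methods proposed may carry one label only). The assay is AlphaSeq: two haploid yeast populations carry antibody and antigen on their surface. Mating (16 h, 30 °C) was followed by selection of diploids and sequencing of their barcodes. A regression on co-assayed BCL2-family reference pairs converts the normalised counts of each replicate to an apparent Kd. The assay was run in six technical replicates.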

Each variant is given by its three heavy chain CDRs, as the data file delimits them; those of the parent are GFTLNSYGIS, VIYSDGRRTFYGDSVK, GRAAGTFDS. This list holds designs with more than six substitutions. Each Kd is an estimate from the mating assay, the geometric mean of the replicates in which the pair was seen; lower is stronger. "not detected" means that the variant was in the library but no mating with the target was seen in any replicate; the authors take this as a sign of poor binding, and no number exists. Of ten entries with the parent sequence, four were seen in most replicates (averages 2.2 nM to 240 nM), three in one and three in none, so single entries are noisy. The authors' rule: three or more of the six replicates give a measured affinity, fewer mean a poor binder. The range of this assay differs from that of the first round, and the authors advise against merging the two. Three control strains display no target. For all heavy chain designs, 1% of the pairings with them gave a signal, with a median of 120 nM and one signal in twenty below 7.0 nM, so weak values seen in few replicates may be background.

CDR-H1,CDR-H2,CDR-H3,group,Kd (apparent),detected
GFDLNEYGIS,VIYADGKRTAYSDSVK,GNTAGTFDQ,En_Gen,390 pM,6/6
GFNLDEYGIS,VIYADGKRTAYSDSVK,GEVAGTFDI,En_HC,840 pM,6/6
GFDLDEYGIS,VIYADGRRTFYADSVK,GEIAGTFFS,En_HC,560 pM,5/6
GFDLNEYGIS,VIYADGRRTAYTDSVK,GEFAGTFDG,En_HC,not detected,0/6
GFDLNEYGIS,VIYADGKRTAYADSVK,GQVAGTFDM,En_Gen,200 pM,6/6
GFDLNEYGIS,VIYADGVRTAYVDSVK,GENAGTFDL,En_Gen,1.8 nM,6/6
GFDLEEQGIS,VIYADGKRAQYSANVK,GYQTGFIDV,En_Gibbs,not detected,0/6
GFNLDEYGIS,VIYADGQRTAYAQHVK,GGGTTDRGI,En_Gibbs,not detected,0/6
GVNLDEYGIS,VIYADGVRQHYTDSVK,GTLGDFGVV,En_Gibbs,140 nM,2/6
GFDLNEYGIS,VIYADGKRTFYADSVK,GQAAGTFDM,En_HC,420 pM,6/6
GFDLDEYGIS,VIYADGKRTAYADDVK,GNVAGTFDI,En_Gen,450 pM,6/6
GFDLNEYGIS,VIYADGQRTFYADSVK,GQNAGTFDL,En_HC,460 pM,6/6
GFDLNEYGIS,VIYADGQRTAYTDSVK,GNTAGTFDV,En_Gen,480 pM,6/6
GFGLDEYGIS,VIYADGRRTAYADSVK,GENAGTFLM,En_HC,10 nM,6/6
GFDLNEYGIS,VIYADGMRSALINAVK,GTSSGTVIA,En_Gibbs,not detected,0/6
GKLLDEYGIS,VIYADGMRMVYTDSVK,GNLTDTLLV,En_Gibbs,not detected,0/6
GFDLNEYGIS,VIYADGKRTAYAESVK,GNQAGTFDV,En_Gen,210 pM,6/6
GFDLNEYGIS,VIYADGVRTAYADSVK,GANAGTFDI,En_Gen,540 pM,6/6
GFSLNEYGIS,VIYADGKRMVYADSVK,GSESGWFDI,En_Gibbs,3.6 µM,1/6
GFDLNEYGIS,VIYADGKRTAYSDSVK,GQVAGTFDI,En_Gen,280 pM,6/6
GFDLNEYGIS,VIYADGVRSFYADNAK,GNVGIFAEV,En_Gibbs,not detected,0/6
GFQINEYGIS,VIYADGLRAAYSQDVK,GQDTGNFVD,En_Gibbs,not detected,0/6
GFDLDEYGIS,VIYADGQRTFYADSVK,GTNAGTFDA,En_HC,300 pM,6/6
GFDLNEYGIS,VIYADGMRTAYANSVK,GNVAGTFDQ,En_Gen,350 pM,6/6
GFDLNEYGIS,VIYADGRRSFYADSVK,GQNAGTFDV,En_HC,1.0 nM,6/6
GFNLDEYGIS,VIYADGRRTFYADSVK,GSVGGTFDT,En_HC,540 pM,6/6
GFDLNEYGIS,VIYADGVRTVYADSVK,GNVAGTFDT,En_Gen,280 pM,6/6
GFDLNEYGIS,VIYADGRRTAYSDSVK,GNVGGTFDV,En_HC,670 pM,6/6
GFDLNEYGIS,VIYADGRRKFYADSVK,GENAGTFNV,En_HC,490 pM,6/6
GQNLDEYGIS,VIYADGMRKWYADSVK,GNMSAGLIA,En_Gibbs,not detected,0/6
GFDLDEYGIS,VIYADGKRTAYADNVK,GETAGTFDV,En_Gen,14 nM,5/6
GKSLEEYGIS,VIYADGKRNMYANNVK,GHVGYIFMM,En_Gibbs,not detected,0/6
GFSLDEFGIS,VIYADGMRTAYSQDVK,GQHVEFTVG,En_Gibbs,not detected,0/6
GFDLEEYGIS,VIYADGVRTSYVDQVK,GENGGAYYT,En_Gibbs,70 nM,1/6
GFDLNEYGIS,VIYADGRRTSYADSVK,GQLAGTFDF,En_HC,290 pM,6/6
GFDLDEYGIS,VIYADGMRTAYVDSVK,GENAGTFDL,En_Gen,9.0 nM,5/6
GFDLNEYGIS,VIYADGRRTAYIDSVK,GEIAGTFDA,En_HC,500 pM,6/6
GFDLNEYGIS,VIYADGRRTFYADSVK,GTNAGTFDF,En_HC,710 pM,6/6
GFDLNDYGIS,VIYADGRRTQYIDSVK,GNQAGTFDV,En_HC,530 nM,1/6
GFTLDEYGIS,VIYADGRRTFYSDSVK,GQTAGTFDV,En_HC,210 pM,6/6
GFEIQEFGIS,VIYADGRRTAYAENVK,GTLGGTFTT,En_Gibbs,not detected,0/6
GFDLNEYGIS,VIYADGMRTAYADDVK,GNVGGTFDV,En_Gen,290 pM,6/6
GFDLNEYGIS,VIYADGVRTAYADSVK,GNTAGTFDT,En_Gen,58 pM,6/6
GFDLNEYGIS,VIYADGRRTFYSDSVK,GEVAGTFDQ,En_HC,940 pM,6/6
GRDIEDYGIS,VIYADGVRKVYHDSVK,GQVAGFFIT,En_Gibbs,not detected,0/6
GKSLDEYGIS,VIYADGLRSVYANSVK,GQFDDTLDL,En_Gibbs,250 nM,1/6
GFDLNEYGIS,VIYADGSRTFYADSVK,GEAAGSFDV,En_HC,7.4 nM,6/6
GFDLNEYGIS,VIYADGRRTFYADSVK,GQIAGTFDL,En_HC,250 pM,6/6
GFDLNEYGIS,VIYADGMRTAYVDSVK,GNVAGTFDI,En_Gen,2.0 nM,1/6
GFDLNEYGIS,VIYADGMRKAYADSVK,GNTAGTFDI,En_Gen,660 pM,6/6
GFSLDEMGIS,VIYADGQRTAYVDNVK,GVQGVVVGL,En_Gibbs,not detected,0/6
GFDLNEYGIS,VIYADGSRTAYADSVK,GNVAGTFDT,En_Gen,540 pM,6/6
GFSLNEYGIS,VIYADGLRSEYQDKVK,GELALSLDT,En_Gibbs,310 nM,1/6
GFDLEEYGIS,VIYADGHRSKYANSVK,GGQVDFAIT,En_Gibbs,not detected,0/6
GFGLMDYGIS,VIYADGMRRSYANSFK,GAHAGTFDE,En_Gibbs,36 nM,6/6
GFSLDEYGIS,VIYADGRRTFYQDSVK,GNVAGTFDS,En_HC,150 pM,6/6